Results: PubChem BioAssay AID686970 (National Center for Advancing Translational Sciences (NCATS), 2013)
This is a selection; strong and weak results do not stand in their true shares. Inconclusive results are not listed. Calls of active or inactive are those of the source. Calls follow the shape of the dose curve; as a rule, active = well fitted cell-killing curve with a large enough effect; inconclusive = small, poorly fitted or top-dose-only effect, or effect the other way; inactive = flat fitted curve, though single readings scatter.

Experiment: qHTS for induction of synthetic lethality in tumor cells producing 2HG: qHTS for the HT-1080-NT fibrosarcoma cell line;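 also: NT is the 2HG producing partner of a matched IDH1 knockdown line; 0% = DMSO-treated cells and -100% = media-only wells without cells; nearly all actives have a fitted effect of over 55% in size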
Settings: HT-1080-NT fibrosarcoma viability, CellTiter-Glo ATP luminescence, 48 h; series mostly up to 46.1 µM; activity, negative = less viability: at the top concentration

Compound | activity, negative = less viability
CC(=O)Nc1ccc([As](=O)(O)O)c(O)c1 | inactive: 4.06%
CC(=O)Nc1ccc(Oc2c([N+](=O)[O-])cc([N+](=O)[O-])cc2[N+](=O)[O-])cc1 | inactive: -18.6%
N#C/C(=C\c1ccc(N(CCBr)CCBr)cc1)C(N)=O | inactive: -0.369%
CC(=O)c1ccc(N2CC2c2ccncc2)cc1 (configuration not stated) | inactive: 14.2%
COC(=O)C1(C)COP(=O)(NCc2ccccc2)OC1 (configuration not stated) | inactive: 8.9%
Cc1ccccc1CN(C)C(=O)COC(=O)C(O)(c1ccccc1)c1ccccc1 | inactive: -7.07%
C[C@@H]1C=CCP(=O)(Oc2ccccc2)O1 (some centres not stated) | inactive: 0.0189%
C[C@H]1OP(=O)(Oc2ccccc2)C[C@@H]2O[C@@H]21 (some centres not stated) | inactive: 4.79%
CCc1cc(O)c([N+](=O)[O-])c(C)c1[N+](=O)[O-] | inactive: 1.19%
CC(C)(C)C(=O)NC(Sc1ccccc1)C(Cl)(Cl)Cl (configuration not stated) | inactive: 2.08%
O=P1(Nc2nc3ccc(Cl)cc3s2)COc2ccccc2O1 (configuration not stated) | inactive: -3.85%
CCOc1ccc(C2=NCC(CBr)S2)cc1 (configuration not stated) | inactive: 0.158%
c1nnnn1CCn1cnnn1 | inactive: 15.5%
CC(C)C(=O)NC(Sc1ccccc1)C(Cl)(Cl)Cl (configuration not stated) | inactive: 4.63%
O=P(Nc1nccs1)(c1ccccc1)c1ccccc1 | inactive: 12%
Nc1ccc([As](=O)(O)c2ccc([N+](=O)[O-])cc2)cc1 | inactive: 24.6%
C(Cc1nn[nH]n1)Cc1nn[nH]n1 | inactive: 15.7%
O=C(OC1CN2CCC1CC2)c1cccc(Cl)c1 (configuration not stated) | inactive: 8.79%
CC(=O)NC(SC(=S)N(C)C)C(Cl)(Cl)Cl (configuration not stated) | inactive: 1.09%
O=[N+]([O-])c1ncn(CCn2cnc([N+](=O)[O-])n2)n1 | inactive: 1.41%
O=[As](O)(c1ccccc1)c1ccc(O)cc1 | inactive: 12.7%

Compound | activity, negative = less viability
C[C@H]1OP(=O)(Oc2ccccc2)[C@H](O)[C@H](O)[C@H]1N=[N+]=[N-] (some centres not stated) | inactive: -0.0888%
Nc1ccc(CCCCOc2ccccc2)cc1 | inactive: -24.9%
COc1ccc(N)c([N+](=O)[O-])c1[N+](=O)[O-] | inactive: -15.3%
O=[N+]([O-])c1cccc(NC2=NCC(CBr)S2)c1 (configuration not stated) | inactive: 0.772%
COC(=O)C1(C)COP(=O)(Nc2ccccc2)OC1 (configuration not stated) | inactive: 13.3%
O=C(O)CNc1ccc([As](=O)(O)O)cc1 | inactive: 3.34%
CC(C)(C)C(=O)NC(Sc1ccncn1)C(Cl)(Cl)Cl (configuration not stated) | inactive: -1.4%
O=[N+]([O-])c1ncn(CCn2ncnc2[N+](=O)[O-])n1 | inactive: -3.97%
O=C(Nc1cc([As](=O)(O)O)ccc1O)c1ccccc1 | inactive: 2.18%
O=P1(N(CCCl)CCCl)OCCCS1 (configuration not stated) | inactive: -0.398%
CC(C)=N/N=C(\N)N[N+](=O)[O-] | inactive: 17.8%
CC(C)c1nc(Nc2ccccc2)n(P(=O)(N(C)C)N(C)C)n1 | inactive: 1.12%
CN(C)C(=O)OCCc1n(C)cc[n+]1C | inactive: 3.85%
c1cc(-c2nn[nH]n2)ccc1-c1nn[nH]n1 | inactive: -1.89%
CC1CCN(C(=O)Oc2c(Cl)cc(Cl)c3cccnc23)CC1 | inactive: -4.82%
Nc1ccc([As](=O)(O)c2ccc(N)cc2)cc1 | inactive: 17.5%
CCN(/C(=N/P(=O)(N1CCOCC1)N1CCOCC1)N1CCOCC1)c1ccc(OC)cc1 | inactive: 10.6%
O=[N+]([O-])c1cccc2n[nH]nc12 | inactive: 1.6%
CC(=O)N1C2C3N(C(C)=O)C1C1N(C(C)=O)C(C(N1C(C)=O)N3C(C)=O)N2C(C)=O | inactive: 10.3%
Cc1ccc(NP(=O)(Oc2ccccc2)Oc2ccccc2)nc1 | inactive: -1.17%
CCc1nc2c(n1)c1c(non1O)c1c2no[n+]1[O-] | inactive: -15.2%

Compound | activity, negative = less viability
COc1ccc(C2=NCC(CBr)S2)cc1 (configuration not stated) | inactive: -15.1%
CC(C)CC(=O)NC(Sc1ccc(Cl)cc1)C(Cl)(Cl)Cl (configuration not stated) | inactive: -19.3%
Nc1cc(N)c2nonc2c1[N+](=O)[O-] | inactive: -0.384%
Oc1ccccc1CNc1ccccn1 | inactive: 2.02%
O=C(NC(Sc1ccncn1)C(Cl)(Cl)Cl)c1ccccc1 (configuration not stated) | inactive: -1.96%
COc1ccccc1OP(=O)(Nc1ccc(C)cn1)Oc1ccccc1OC | inactive: -3.76%
Cc1ccc(OP(=O)(Nc2nccs2)Oc2ccc(C)cc2)cc1 | inactive: 10.1%
Clc1ccc(Cl)c(NC2=NCC(CBr)S2)c1 (configuration not stated) | inactive: -6.12%
CN1CCCC(OC(=O)C(c2ccccc2)c2ccccc2)C1 (configuration not stated) | inactive: -1.62%
NC(=O)c1cc([N+](=O)[O-])cc([N+](=O)[O-])c1N | inactive: -4.64%
Cc1ccc(N/C(=N/P(=O)(N2CCOCC2)N2CCOCC2)N2CCOCC2)cc1 | inactive: -4.73%
CCN(N=Nc1nonc1N)c1nonc1N | inactive: 14.2%
Nc1cccc2ccc([As](=O)(O)O)cc12 | inactive: 2.21%
CCOP(=O)(Nc1ccccc1)OCC | inactive: 13.3%
Cc1cc(SC(NC(=O)c2ccc(F)cc2)C(Cl)(Cl)Cl)ncn1 (configuration not stated) | inactive: 14%
Cc1ccc(NP(=O)(Oc2ccccc2F)Oc2ccccc2F)nc1 | inactive: 3.29%
O=C(O)c1ccccc1[As](=O)(O)O | inactive: -6.03%
CC(=O)Nc1ccc([As](=O)(O)O)cc1 | inactive: 23%
CCCC1OP(N)(=O)OCC1CC (configuration not stated) | inactive: -1.28%
CN(C)P(=O)(N(C)C)n1c(Nc2ccccc2)nnc1-c1ccccc1 | inactive: -9.17%
